Test results as given in US20020037902A1, “Use of riluzole or its salts for the prevention and treatment of adrenoleukodystrophy” (priority 2000, published 2002).

Assays:
oligodendrocytes [1] = experiment: Test 3: protective effect of riluzole on oligodendrocyte death induced by kainate; assay type: cell-based, Wistar rats; details: for Number of oligodendrocytes % relative to the control ± standard deviation: 48 hours
Procedure: Protective effect of riluzole on oligocytes death induced by kainate
The oligodendrocyte cultures were exposed to kainate at a dose of 1 mM and to riluzole at doses of from about 0.01 mM to about 10 mM.

oligodendrocytes [2] = details: 48 hours

Nc1nc2ccc(OC(F)(F)F)cc2s1 [Riluzole, 2-amino-6-trifluoromethoxy-benzothiazole]
Number of oligodendrocytes % relative to the control ± standard deviation (oligodendrocytes [1]; Kainate 1 mM + riluzole 0.01 mM): 48.7 ± 7 % relative to the control
Number of oligodendrocytes % relative to the control ± standard deviation (oligodendrocytes [1]; Kainate 1 mM + riluzole 0.1 mM): 65.2 ± 9.2 % relative to the control
Number of oligodendrocytes % relative to the control ± standard deviation (oligodendrocytes [1]; Kainate 1 mM + riluzole 1 mM): 69.4 ± 12 % relative to the control
Number of oligodendrocytes % relative to the control ± standard deviation (oligodendrocytes [1]; Kainate 1 mM + riluzole 10 mM): 56.3 ± 6.9 % relative to the control
Effect on oligodendrocyte death from apoptosis induced by kainate (oligodendrocytes [1]; kainate 1 mM, riluzole about 0.01 mM to about 10 mM): reduces oligodendrocyte death from apoptosis induced by kainite; also recorded: reduced oligodendrocyte death from apoptosis induced by kainate
Number of oligodendrocytes % relative to the control ± standard deviation (oligodendrocytes [2]; riluzole alone 0.01 mM): 99.6 ± 15.7 % relative to the control
Number of oligodendrocytes % relative to the control ± standard deviation (oligodendrocytes [2]; riluzole alone 0.1 mM): 94.3 ± 17.3 % relative to the control
Number of oligodendrocytes % relative to the control ± standard deviation (oligodendrocytes [2]; riluzole alone 1 mM): 107.1 ± 9.5 % relative to the control
Number of oligodendrocytes % relative to the control ± standard deviation (oligodendrocytes [2]; riluzole alone 10 mM): 86.9 ± 16 % relative to the control

Entries after “also recorded” stand apart in the source; their conditions may differ. Like-named read-outs stand apart in the source and are kept apart here.
